Measured values: patent publication US20190105337A1, “METHODS OF TREATING BACTERIAL INFECTIONS” (priority 2015, published 2019)

Tests used:
[1] = tested on: P. aeruginosa strains; assay type: cell-based, Pseudomonas aeruginosa
Experimental: The pharmacokinetics simulation was based on data from the clinical study disclosed in Example 2.
In Vitro PK-PD Model: Six medium sized hollow-fiber cartridges (FiberCell Systems) were used per experiment. Three strains studied in duplicate were used for each experiment. Log-phase cells were inoculated and incubated for 2 hours prior to the start of treatment to achieve about 10^8 CFU/mL. Target PK parameters are listed in Tables E and F. The exposures were based on the published literatures disclosed in Example 2. Samples were collected from the central compartment for the determination of drug concentrations over a 32 hour period and were analyzed using an LC-MS/MS method.

[2] = 2 gram dose, cited from earlier work

C[C@@H](O)[C@H]1C(=O)N2C(C(=O)O)=C(S[C@@H]3CN[C@H](C(=O)N(C)C)C3)[C@H](C)[C@H]12 [meropenem, Meropenem]
resistance development ([1]; 2 g q8h by 3 hour infusion, strain with an MIC of 8 mg/L): Resistance developed | Resistance development over 32 hours ([1]; P. aeruginosa PAM3353, human equivalent 2 g q8h by 3 hour infusion): *Resistance Developed | penetration ratio ([2]; 1-hour sampling time): 0.05 | penetration ratio ([2]; 3-hour sampling time): 0.22

Like-named read-outs stand apart in the source and are kept apart here.
